Results on 1 compound are retold here after patent US5444042A, “Method of treatment of neurodegeneration with calpain inhibitors” (Cortex Pharmaceuticals, priority 1994, dated 1995).

One test deals with T1, Papain (Carica papaya, UniProt P00784).
T1 sequence (P00784 134-345): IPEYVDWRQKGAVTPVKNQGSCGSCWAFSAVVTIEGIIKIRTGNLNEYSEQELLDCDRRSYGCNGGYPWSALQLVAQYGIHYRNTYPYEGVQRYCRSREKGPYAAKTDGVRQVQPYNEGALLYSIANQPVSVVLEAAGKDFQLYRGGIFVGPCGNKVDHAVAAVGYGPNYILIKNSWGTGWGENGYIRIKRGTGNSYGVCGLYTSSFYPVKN
Kind of test: Papain inhibition, Ki by Dixon plot (Table PKC1). The format is biochemical. The note with it: 0.05M Tris-HCl pH 7.5, 2 mM EDTA, 5 mM cysteine, 1% DMSO, 25° C., substrate Nα-Benzoyl-Arg-AMC; read-out: Ki P (Papain). The protocol:
(§1) Our discovery of Peptide Keto-Compounds effective as Calpain Inhibitors was made through assay of the Peptide Keto-Compounds as reversible inhibitors. Various concentrations of inhibitors in dimethylsulfoxide (DMSO) were added to the assay mixture, which contained buffer and substrate. The reaction was started by the addition of the enzyme and the hydrolysis rates were followed spectrophotometrically or fluorimetrically. 88 mM KH2 PO4, 12 mM Na2 HPO4, 1.33 mM EDTA, 2.7 mM cysteine, pH 6.0 was used as a buffer for cathepsin B; and 20 mM Hepes, 10 mM CaCl2, 10 mM β-mercaptoethanol, pH 7.2 buffer was utilized for calpain I and calpain II.
All peptide thioester hydrolysis rates were measured with assay mixtures containing 4,4'-dithiodipyridine [e324=19800 M-1 cm-1; Grasetti & Murray, Arch. […] Enzymatic hydrolysis rates were measured at various substrate and inhibitor concentrations, and Ki values were determined by Dixon plot.
The inhibition constants for papain shown in Table PKC1 were measured in 0.05M Tris-HCl, pH 7.5 buffer, containing 2 mM EDTA, 5 mM cysteine (freshly prepared), 1% DMSO, at 25° C., using N^α -Benzoyl-Arg-AMC as a substrate, except that those values of inhibition constants for papain marked with an "e" in Table PKC1 were measured in 50 mM Tris-HCl, pH 7.5 buffer, containing 20 mM EDTA, 5 mM cysteine, 9% DMSO, at 25° C., using N^α -Benzoyl-Arg-NA as a substrate.

A further test concerns the target Cathepsin B (Bos taurus, UniProt P07688). Kind of test: Cathepsin B inhibition, Z-Arg-Arg-AFC (Table PKC1). The format is biochemical. The settings on record: pH 6.0 phosphate buffer, substrate Z-Arg-Arg-AFC; read-out: Ki CB (Cathepsin B). The protocol: as §1
All peptide thioester hydrolysis rates were measured with assay mixtures containing 4,4'-dithiodipyridine [e324=19800 M-1 cm-1; Grasetti & Murray, Arch. Biochem. Biophys. 119, pp 41-49 (1967)]. Papain was assayed with Bz-Arg-AMC or Bz-Arg-NA [Kanaoka et al., Chem. Pharm. Bull. 25, 3126-3128 (1977)], and the AMC (7-amino-4-methylcoumarin) release was followed fluorimetrically (excitation at 380 nm, and emission at 460 nm). Cathepsin B was assayed with Z-Arg-Arg-AFC [Barrett and Kirschke, Methods Enzymol. […] Enzymatic hydrolysis rates were measured at various substrate and inhibitor concentrations, and Ki values were determined by Dixon plot.

The subject of test [1] is Calpain in crude brain extracts. Kind of test: Ca2+-stimulated spectrin proteolysis in crude brain extracts (Example 2). Type of test: biochemical. The note with it: 100 μM. The protocol:
The activity of Calpain in crude brain extracts was measured by examining the Ca^2+ -stimulated proteolysis of the endogenous substrate spectrin. Brain tissue was homogenized in 10 mM Tris pH=7.4, 0.32M sucrose, 1 mM EGTA, 1 mM dithiothreitol and the nuclei and debris removed by low speed centrifugation. Various Calpain Inhibitors were added to the supernatant in a DMSO vehicle and a calcium salt (final effective concentration about 1.2 mM) added to start the reaction. Proteolysis of spectrin was evaluated by western blot as described by Seubert, et at. (Brain Research, 459:226-232, 1988), the disclosure of which is hereby incorporated by reference. Briefly, a known quantity of a spectrin-containing sample treated with Calpain is separated by SDS-PAGE and immunoblotted with anti-spectrin antibody. […] An examplary method for quantitating BDP's is to assay Spectrin BDP's by homogenizing brain parts in 20 mM Tris pH=7.2, 0.32M sucrose, 50 μM Ac-Leu-Leu-nLeu-H on ice. […] The proteins in the gels are transferred to nitrocellulose and the spectrin and BDP's detected using a rabbit polyclonal anti-spectrin antibody and established immunodetection methods. The amount of spectrin and BDP's in each sample can be quantitated by densitrometric scanning of the developed nitrocellulose. […]

Another test has as its system Calpain within platelets. Kind of test: Platelet membrane permeation assay, spectrin proteolysis (Examples 4A, 4B). Type of test: cell-based, rat. The settings on record: 100 μM, A23187 1 μM. The method, then: Platelets were isolated by a modification of the method of Ferrell and Martin, J Biol. Chem., 264:20723-20729 (1989), the disclosure of which is hereby incorporated by reference. Blood (15-20 ml) was drawn from male Sprague-Dawley rats into 100 mM EDTA-citrate containing 10 units heparin, and centrifuged 30 minutes at 1600 rpm at room temperature. The plasma was resuspended in 15 ml buffer 1 (136 mM NaCl, 2.7 mM KCl, 0.42 mM NaH2 PO4, 12 mM NaHCO3, 2 mM MgCl2, 2 mg/ml BSA (Sigma), 5.6 mM glucose, 22 mM Na3 Citrate pH 6.5) and platelets were isolated at 2200 rpm at room temperature of 25 minutes. Platelets were resuspended to 10^7 cells/ml in buffer 2 (136 mM NaCl, 2.7 mM KCl, 0.42 NaH2 PO4, 12 mM NaHCO3, 2 mM MgCl, 1 mg/ml BSA, 5.6 mM glucose, 20 mM HEPES pH 7.4) and allowed to "rest" for a minimum of 10 minutes at room temperature before use.
Platelets were incubated for 5 minutes in the presence of inhibitor. In order to provide sufficient intracellular calcium to activate Calpain, the calcium ionophore A23187 was added to a final concentration of 1 μM. After a further 5 minute incubation, the platelets were harvested by centrifugation (1 min 10,000×g) and resuspended in 10% sodium dodecyl sulfate, 10 mM Tris pH=8.0, 5% β-mercaptoethanol, 0.02% bromophenol blue, and heated to 95° C. for 5 min. […] Spectrin immunoreactivity on the filters was quantitated by densitometry. […]

Take `CCOC(=O)C(=O)C(C)NC(=O)[C@H](C)NC(=O)[C@H](C)NC(=O)[C@H](C)NC(=O)OCc1ccccc1` (mixture of isomers) [Z-Ala-Ala-Ala-DL-Ala-COOEt, Z-Ala-Ala-Ala-DL-Ala-CO2 Et]: the Ki (commonly the dissociation constant of the complex between target and ligand, obtained from inhibition or displacement) on Papain stood at 2.1 µM; on Cathepsin B, 10 µM. Further, the “inhibition of spectrin proteolysis in crude brain extracts” value in test [1] is reported as “significant inhibition”. In addition, in the test with Calpain within platelets, the “inhibition of Calpain within platelets” value is on record as “significant inhibition”.
